The target in assay [1] is T1, hGIIA binding to full length vimentin (Homo sapiens, UniProt P08670).
T1 construct: His6 tag (HHHHHH) from pET15b (N); thrombin cleavage site (LVPRGS) (N); made in house; host or cells: vimentin: Rosetta 2 E. coli (pET15b)
Nature of the assay: Colorimetric enzyme immunoassay (EIA) of inhibitor effect on the hGIIA-vimentin interaction, full length vimentin. As to conditions: immobilised full length vimentin, hGIIA 250 ng/mL, inhibitors 5-100 μM, FIG. 2B top panel. The protocol:
The effect of inhibitors on the hGIIA-vimentin interaction was measured with a colorimetric enzyme immunoassay (EIA), using a similar protocol to the hGIIA ELISA method. Purified vimentin protein solutions (full length, coil 1 or coil 2 fragments) were diluted to 10-20 μg/mL concentration in PBS and seeded to a 96-well microplate with a 100 μL/well volume. After an overnight incubation at 4° C., the plate was emptied. Each well was then blocked with 200 μL of 1% BSA in PBS. The blocked plate was incubated for at least an overnight period at 4° C. and used within 1 week.
The hGIIA solution was prepared with or without inhibitors. For testing the hGIIA binding to vimentin, samples of the hGIIA solution were prepared in a range of 5-1000 ng/mL in PBS with 0.1% BSA, without any inhibitors. The PBS buffer with 0.1% BSA without any hGIIA served as a control. For testing the efficacy of the inhibitors, stock solutions of the inhibitors prepared in DMSO were step diluted in DMSO and added to the solution of purified hGIIA (250 ng/mL, in PBS with 0.1% BSA) to the final concentrations between 5-100 μM. […]
The AP substrate PNPP powder was dissolved in carbonate buffer to 1 mg/mL concentration. […] The prepared PNPP solution was added (100 μL/well) and the plates were incubated at 37° C. for up to 60 minutes and the absorbance at 405 nm was read by a Victor X4 plate reader at 15-minute intervals.

Protein sequences, listed by entry. Tags and fused reporters are not part of them. Residues count along the entry.
UniProt P08670, whole entry: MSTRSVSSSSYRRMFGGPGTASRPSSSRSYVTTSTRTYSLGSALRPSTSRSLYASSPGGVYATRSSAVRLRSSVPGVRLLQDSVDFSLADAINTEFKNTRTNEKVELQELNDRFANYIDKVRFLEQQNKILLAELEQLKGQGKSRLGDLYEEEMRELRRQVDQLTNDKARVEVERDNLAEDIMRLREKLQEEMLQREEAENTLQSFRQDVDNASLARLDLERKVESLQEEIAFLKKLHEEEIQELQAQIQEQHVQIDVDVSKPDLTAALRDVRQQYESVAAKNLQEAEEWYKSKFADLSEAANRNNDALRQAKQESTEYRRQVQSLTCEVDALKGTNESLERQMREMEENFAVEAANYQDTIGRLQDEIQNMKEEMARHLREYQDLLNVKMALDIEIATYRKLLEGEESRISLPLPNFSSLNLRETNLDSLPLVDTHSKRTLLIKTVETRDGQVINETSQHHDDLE
UniProt P08670, 96-253: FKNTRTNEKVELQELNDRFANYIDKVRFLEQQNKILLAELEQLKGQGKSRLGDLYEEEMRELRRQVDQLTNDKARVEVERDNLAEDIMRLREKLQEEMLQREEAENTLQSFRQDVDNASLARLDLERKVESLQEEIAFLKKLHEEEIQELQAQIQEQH
UniProt P08670, 254-405: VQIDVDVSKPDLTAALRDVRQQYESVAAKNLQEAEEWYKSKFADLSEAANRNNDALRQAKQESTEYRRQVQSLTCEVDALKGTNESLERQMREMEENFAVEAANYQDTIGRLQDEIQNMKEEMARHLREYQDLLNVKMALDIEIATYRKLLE

For the next assay, the target named is T2, vimentin full length (Homo sapiens, UniProt P08670).
T2 construct: His6 tag (HHHHHH) from pET15b (N); thrombin cleavage site (LVPRGS) (N); made in house; host or cells: Rosetta 2 E. coli, pET15b; Ni-NTA under denaturing conditions (8 M urea)
Nature of the assay: Affinity of radiolabelled c2 to immobilised proteins: vimentin full length. The assay is classed as binding. As to conditions: 50 μM [3H]c2, 37° C., 60 min, in the absence of hGIIA, FIG. 2C. The protocol: (§1) To an Isoplate 96-well microplate with white wall and flat clear bottoms (PerkinElmer), 100 μL of either hGIIA, vimentin full length, coil 1 or 2 prepared in PBS to 40 μg/mL concentration or PBS without any proteins, was added, each in triplicate wells. The plate was covered with a lid and incubated at 4° C. overnight. The plate was emptied and blocked by adding 200 μL of 1% BSA in PBS into each well. The plated was covered with a lid and incubated at 4° C. for at least overnight. The plate was emptied and washed with 200 μL/well of PBST (containing 0.05% Tween-20) five times. The 2 mg/mL stock solution of [3H]c2 compound (SibTech, Brookfield, Conn., USA) was diluted to 50 μM in PBS and 30 μL of the prepared solution was added to each well. The plate was sealed and incubated at 37° C. for 60 min. The plate was emptied and washed with PBST five times. Ultima Gold XR scintillation fluid (PerkinElmer, Waltham, Mass., USA) was added to the washed plate (100 μL/well). The plate was sealed with a clear film and measured using a Microbeta2 scintillation counter (PerkinElmer), with default settings optimised for 3H detection.

The target in a further assay is T3, coil 1 of vimentin (Homo sapiens, UniProt P08670).
T3 construct: His6 tag (HHHHHH) from pET15b (N); thrombin cleavage site (LVPRGS) (N); made in house; host or cells: Rosetta 2 E. coli, pET15b; Ni-NTA under non-denaturing conditions
The assay can be described thus: Affinity of radiolabelled c2 to immobilised proteins: vimentin coil 1. The assay is classed as binding. As to conditions: 50 μM [3H]c2, 37° C., 60 min, in the absence of hGIIA, FIG. 2C. How it is done:
as §1

The target of another assay is T4, coil 2 of vimentin (Homo sapiens, UniProt P08670).
T4 construct: His6 tag (HHHHHH) from pET15b (N); thrombin cleavage site (LVPRGS) (N); made in house; host or cells: Rosetta 2 E. coli, pET15b; Ni-NTA under non-denaturing conditions
Nature of the assay: Affinity of radiolabelled c2 to immobilised proteins: vimentin coil 2. Conditions: 50 μM [3H]c2, 37° C., 60 min, in the absence of hGIIA, FIG. 2C. The assay is classed as binding. How it is done:
as §1

Another assay addresses T5, hGIIA (Homo sapiens, UniProt P14555).
T5 construct: made in house
T5 sequence (P14555 21-144): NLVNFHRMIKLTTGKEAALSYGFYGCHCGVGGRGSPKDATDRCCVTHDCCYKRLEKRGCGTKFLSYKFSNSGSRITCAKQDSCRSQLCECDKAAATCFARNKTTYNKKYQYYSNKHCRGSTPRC
Nature of the assay: Affinity of radiolabelled c2 to immobilised proteins: hGIIA. Format: binding. As to conditions: 50 μM [3H]c2, 37° C., 60 min, scintillation counting, FIG. 2C. The protocol: as §1

As for “cyclo-((2-Nal)-Leu-Ser-(2-Nal)-Arg) [c2]”, the “inhibition of hGIIA binding to full length vimentin” value in assay [1] is listed as “greater inhibition of hGIIA binding to full length vimentin than LY311727”.

As for “3H-labelled c2: radiolabelled c2 compound (SibTech)”, the “binding of 3H-labelled c2 to immobilised full-length vimentin” value in the assay with vimentin full length is on record as “more strongly”. In the assay with coil 1 of vimentin, the “binding of 3H-labelled c2 to immobilised coil 1 of vimentin” value is listed as “not to coil 1”. In addition, the “binding of 3H-labelled c2 to immobilised coil 2 of vimentin” value in the assay with coil 2 of vimentin is reported as “more strongly”. For the same substance, the “binding of 3H-labelled c2 to immobilised hGIIA” value in the assay with hGIIA was “binds weakly”.

Source of the values: patent US20230270817A1, “VIMENTIN INHIBITORS” (Filamon Pty Ltd, priority 2020, published 2023).
